Reference: patent US6476254B1, “Alkoxylated fatty alcohol dicarboxylic acid esters” (Croda Inc., priority 1998, dated 2002)

Test: Solubilization of benzophenone 3 by the ester
Assay type: physicochemical
Conditions: forming a clear solution even after 48 hours
Procedure: The compound Bis (PPG2, PEG10 Myristyl) adipate has a viscosity of 18,000 cps, a spread factor of 2.9 and can solubilize at least 20% by weight of benzophenone 3 forming a clear solution even after 48 hours.

can solubilize benzophenone 3: at least 20 % by weight
Substance: Bis (PPG2, PEG10 Myristyl) adipate
